Sequences of proteins named here, by UniProt entry; tags and fusion partners are left off. Residues count along the entry.
UniProt O75417, 1780-2590: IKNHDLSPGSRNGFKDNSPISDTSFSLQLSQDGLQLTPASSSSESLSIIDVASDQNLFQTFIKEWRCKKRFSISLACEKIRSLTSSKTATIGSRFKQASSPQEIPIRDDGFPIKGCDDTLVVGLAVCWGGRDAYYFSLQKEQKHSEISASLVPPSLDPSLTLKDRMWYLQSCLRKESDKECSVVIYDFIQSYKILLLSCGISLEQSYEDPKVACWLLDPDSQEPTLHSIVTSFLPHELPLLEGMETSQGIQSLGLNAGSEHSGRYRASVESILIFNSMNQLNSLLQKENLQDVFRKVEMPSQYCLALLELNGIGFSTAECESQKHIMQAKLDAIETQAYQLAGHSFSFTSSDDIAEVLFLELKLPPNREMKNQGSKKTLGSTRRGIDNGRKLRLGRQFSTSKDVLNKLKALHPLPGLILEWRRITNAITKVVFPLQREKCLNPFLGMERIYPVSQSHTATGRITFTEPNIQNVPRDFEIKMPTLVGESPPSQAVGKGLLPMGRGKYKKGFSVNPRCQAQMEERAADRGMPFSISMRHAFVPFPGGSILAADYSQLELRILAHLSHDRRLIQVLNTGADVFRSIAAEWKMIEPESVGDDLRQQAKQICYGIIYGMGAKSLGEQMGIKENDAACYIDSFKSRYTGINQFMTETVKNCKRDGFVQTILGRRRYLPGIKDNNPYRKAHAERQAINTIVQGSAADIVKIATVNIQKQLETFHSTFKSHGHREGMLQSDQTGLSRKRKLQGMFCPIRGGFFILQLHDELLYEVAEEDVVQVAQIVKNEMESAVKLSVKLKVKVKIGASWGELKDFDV

According to patent US20250195530A1, “POLQ INHIBITORS” (ASTRAZENECA AB, priority 2022, published 2025):

Target: isolated polymerase domain (I1780-V2590) of DNA polymerase theta (Polθ) (Homo sapiens (Human), UniProt O75417)
Test: biochemical

`Cc1ccnc(Cn2c(-c3ccc(C(=O)NCC(F)F)cc3Cl)nc3c(OC4(C)CC4)ncnc32)c1` [Example T93, 3-chloro-N-(2,2-difluoroethyl)-4-(6-(1-methylcyclopropoxy)-9-((4-methylpyridin-2-yl)methyl)-9H-purin-8-yl)benzamide] showed an IC50 of 15.8 nM.
With `CC1(Oc2ncnc3c2nc(-c2ccc(OCCC(C)(C)C(=O)O)cc2Cl)n3Cc2ccccc2C#N)CC1` [Example U17, 4-(3-chloro-4-(9-(2-cyanobenzyl)-6-(1-methylcyclopropoxy)-9H-purin-8-yl)phenoxy)-2,2-dimethylbutanoic acid] the IC50 was 6.31 nM.
For `CC(=O)Nc1ccc(-c2nc3c(OC4(C)CC4)ncnc3n2Cc2cc(C)ccn2)c(Cl)c1` [Example T53, N-(3-chloro-4-(6-(1-methylcyclopropoxy)-9-((4-methylpyridin-2-yl)methyl)-9H-purin-8-yl)phenyl)acetamide], the IC50 was 6.31 nM.
`COC(=O)Nc1ccc(-c2nc3c(OC4(C)CC4)ncnc3n2Cc2cc(C)ccn2)c(Cl)c1` [Example T62, methyl (3-chloro-4-(6-(1-methylcyclopropoxy)-9-((4-methylpyridin-2-yl)methyl)-9H-purin-8-yl)phenyl)carbamate] showed an IC50 of 3.98 nM.
`CNC(=O)COc1ccc(-c2nc3c(OC4(C)CC4)ncnc3n2CCc2ccccc2)c(Cl)c1` [Example T195, 2-(3-chloro-4-(6-(1-methylcyclopropoxy)-9-phenethyl-9H-purin-8-yl)phenoxy)-N-methylacetamide] gave an IC50 of 6.31 nM.
Molecule `CC1(Oc2ncnc3c2nc(-c2ccc(OCCN4C[C@@H]5C[C@H]4CN5)cc2Cl)n3Cc2cc(Cl)ccn2)CC1` [Example T487, 8-(4-(2-((1S,4S)-2,5-diazabicyclo[2.2.1]heptan-2-yl)ethoxy)-2-chlorophenyl)-9-((4-chloropyridin-2-yl)methyl)-6-(1-methylcyclopropoxy)-9H-purine] has an IC50 of 6.31 nM.
For `CN1CCN(C(=O)COc2ccc(-c3nc4c(OC5(C)CC5)ncnc4n3Cc3ccccc3)c(Cl)c2)CC1` [Example C9, 2-(4-(9-benzyl-6-(1-methylcyclopropoxy)-9H-purin-8-yl)-3-chloro-phenoxy)-1-(4-methyl-piperazin-1-yl)ethan-1-one], the IC50 was 3.98 nM.
Molecule `CN(C)CCCOc1ccc(-c2nc3c(OC4(C)CC4)nccc3n2Cc2cc(Cl)ccn2)c(Cl)c1` [Example T377, 3-(3-chloro-4-(1-((4-chloropyridin-2-yl)methyl)-4-(1-methylcyclopropoxy)-1H-imidazo[4,5-c]pyridin-2-yl)phenoxy)-N,N-dimethylpropan-1-amine] has an IC50 of 6.31 nM.
Work on `COc1ccc(Cl)cc1Cn1c(-c2ccc(OCCCC(C)(C)C(=O)O)cc2Cl)nc2c(OC3(C)CC3)ncnc21` [Example U47, 5-(3-chloro-4-(9-(5-chloro-2-methoxybenzyl)-6-(1-methylcyclopropoxy)-9H-purin-8-yl)phenoxy)-2,2-dimethylpentanoic acid] yielded an IC50 of 7.94 nM.
`CC1(Oc2ncnc3c2nc(-c2ccc(OCCN4CCNCC4)cc2Cl)n3Cc2cc(C(F)F)ccn2)CC1` [Example T488, 8-(2-chloro-4-(2-(piperazin-1-yl)ethoxy)phenyl)-9-((4-(difluoromethyl)pyridin-2-yl)methyl)-6-(1-methylcyclopropoxy)-9H-purine] gave an IC50 of 10 nM.
`CC1(Oc2ncnc3c2nc(-c2ccc(OCCC(=O)O)cc2Cl)n3Cc2ccccc2Cl)CC1` [Example T88, 3-(3-chloro-4-(9-(2-chlorobenzyl)-6-(1-methylcyclopropoxy)-9H-purin-8-yl)phenoxy)propanoic acid] gave an IC50 of 10 nM.
Molecule `COc1ccc(Cl)cc1Cn1c(-c2cccc(CCCC(=O)O)c2Cl)nc2c(OC3(C)CC3)ncnc21` [Example U62, 4-(2-chloro-3-(9-(5-chloro-2-methoxybenzyl)-6-(1-methylcyclopropoxy)-9H-purin-8-yl)phenyl)butanoic acid] has an IC50 of 3.98 nM.
`CC1(Oc2ncnc3c2nc(-c2ccc(C(=O)O)cc2Cl)n3Cc2cccc(Cl)c2)CC1` [Example T11, 3-chloro-4-(9-(3-chlorobenzyl)-6-(1-methylcyclopropoxy)-9H-purin-8-yl)benzoic acid] was tested, and the IC50 was 7.94 nM.
`CC1(Oc2ncnc3c2nc(-c2ccc(OCCN4CCNCC4)cc2Cl)n3Cc2ncc(C(F)(F)F)s2)CC1` [Example T207, 2-((8-(2-chloro-4-(2-(piperazin-1-yl)ethoxy)phenyl)-6-(1-methylcyclopropoxy)-9H-purin-9-yl)methyl)-5-(trifluoromethyl)thiazole] gave an IC50 of 7.94 nM.
`CN(C)CCCOc1ccc(-c2nc3c(OC4(C)CC4)ncnc3n2Cc2cc(C(F)(F)F)ccn2)c(Cl)c1` [Example T329, 3-(3-chloro-4-(6-(1-methylcyclopropoxy)-9-((4-(trifluoromethyl)pyridin-2-yl)methyl)-9H-purin-8-yl)phenoxy)-N,N-dimethylpropan-1-amine] gave an IC50 of 2.51 nM.
`CC1(Oc2ncnc3c2nc(-c2ccc(OCCN4CCNCC4)cc2Cl)n3Cc2cnc(Cl)s2)CC1` [Example T146, 2-chloro-5-((8-(2-chloro-4-(2-(piperazin-1-yl)ethoxy)phenyl)-6-(1-methylcyclopropoxy)-9H-purin-9-yl)methyl)thiazole] was tested, and the IC50 was 6.31 nM.
Molecule `Cc1ccnc(Cn2c(-c3ccc(N4CCNCC4)cc3Cl)nc3c(OC4(C)CC4)ncnc32)c1` [Example T235, 8-(2-chloro-4-(piperazin-1-yl)phenyl)-6-(1-methylcyclopropoxy)-9-((4-methylpyridin-2-yl)methyl)-9H-purine] has an IC50 of 6.31 nM.
With `Cc1ccnc(Cn2c(-c3ccc(OCC(=O)N4C[C@H]5C[C@@H](C4)O5)cc3Cl)nc3c(OC4(C)CC4)ncnc32)c1` [Example T550, rel-1-((1R,5S)-6-oxa-3-azabicyclo[3.1.1]heptan-3-yl)-2-(3-chloro-4-(6-(1-methylcyclopropoxy)-9-((4-methylpyridin-2-yl)methyl)-9H-purin-8-yl)phenoxy)ethan-1-one] the IC50 was 10 nM.
`CC(CCOc1ccc(-c2nc3c(OC4(C)CC4)ncnc3n2Cc2c(Cl)cccc2Cl)c(Cl)c1)C(=O)O` (racemic) [Example T277, 4-(3-chloro-4-(9-(2,6-dichlorobenzyl)-6-(1-methylcyclopropoxy)-9H-purin-8-yl)phenoxy)-2-methylbutanoic acid] was tested, and the IC50 was 7.94 nM.
For `CC1(Oc2cccc3c2nc(-c2ccc(OCCC(=O)O)cc2Cl)n3Cc2cccc(Cl)c2)CCC1` [Example T406, 3-(3-chloro-4-(1-(3-chlorobenzyl)-4-(1-methylcyclobutoxy)-1H-benzo[d]imidazol-2-yl)phenoxy)propanoic acid], the IC50 was 10 nM.
In the case of `CCNC(=O)Cc1ccc(-c2nc3c(OC4(C)CC4)ncnc3n2Cc2cc(C)ccn2)c(Cl)c1` [Example T213, 2-(3-chloro-4-(6-(1-methylcyclopropoxy)-9-((4-methylpyridin-2-yl)methyl)-9H-purin-8-yl)phenyl)-N-ethylacetamide], the IC50 is reported as 6.31 nM.
`CN1CCCC(Oc2ccc(-c3nc4c(OC5(C)CC5)ncnc4n3Cc3ccccc3)c(Cl)c2)CC1` (single isomer, unassigned) [Example D13, 9-benzyl-8-(2-chloro-4-((1-methylazepan-4-yl)oxy)phenyl)-6-(1-methylcyclopropoxy)-9H-purine] was tested, and the IC50 was 2.51 nM.
For `CC1NCCN(CCOc2ccc(-c3nc4c(OC5(C)CC5)ncnc4n3Cc3ccccc3)c(Cl)c2)C1=O` (single isomer, unassigned; isomer 2) [Example R14, 1-(2-(4-(9-benzyl-6-(1-methylcyclopropoxy)-9H-purin-8-yl)-3-chlorophenoxy)ethyl)-3-methylpiperazin-2-one (Isomer 2)], the IC50 was 2 nM.
With `CC1(Oc2ncnc3c2nc(-c2cccc(OC(C)(C)C(=O)O)c2Cl)n3Cc2cccc(Cl)c2)CC1` [Example T158, 2-(2-chloro-3-(9-(3-chlorobenzyl)-6-(1-methylcyclopropoxy)-9H-purin-8-yl)phenoxy)-2-methylpropanoic acid] the IC50 was 10 nM.
`CC(COc1ccc(-c2nc3c(OC4(C)CC4)ncnc3n2Cc2cccc(Cl)c2)c(Cl)c1)CC(=O)O` (single isomer, unassigned) [Example T295, 4-(3-chloro-4-(9-(3-chlorobenzyl)-6-(1-methylcyclopropoxy)-9H-purin-8-yl)phenoxy)-3-methylbutanoic acid] was tested, and the IC50 was 5.01 nM.
`Cc1ccnc(Cn2c(-c3ccc(C(=O)N4CCC(O)CC4)cc3Cl)nc3c(OC4(C)CC4)ncnc32)c1` [Example T460, (3-chloro-4-(6-(1-methylcyclopropoxy)-9-((4-methylpyridin-2-yl)methyl)-9H-purin-8-yl)phenyl)(4-hydroxypiperidin-1-yl)methanone] showed an IC50 of 63.1 nM.
For `Cc1ccnc(Cn2c(-c3ccc(OCC(=O)NCCCO)cc3Cl)nc3c(OC4(C)CC4)ncnc32)c1` [Example T373, 2-(3-chloro-4-(6-(1-methylcyclopropoxy)-9-((4-methylpyridin-2-yl)methyl)-9H-purin-8-yl)phenoxy)-N-(3-hydroxypropyl)acetamide], the IC50 was 7.94 nM.
In the case of `Cc1ccnc(Cn2c(-c3ccc(OCCS(C)(=O)=O)cc3Cl)nc3c(OC4(C)CC4)ncnc32)c1` [Example T129, 8-(2-chloro-4-(2-(methylsulfonyl)ethoxy)phenyl)-6-(1-methylcyclopropoxy)-9-((4-methylpyridin-2-yl)methyl)-9H-purine], the IC50 is reported as 6.31 nM.
`CNC(=O)COc1ccc(Cl)c(-c2nc3c(OC4(C)CC4)ncnc3n2Cc2cc(C)ccn2)c1` [Example T122, 2-(4-chloro-3-(6-(1-methylcyclopropoxy)-9-((4-methylpyridin-2-yl)methyl)-9H-purin-8-yl)phenoxy)-N-methylacetamide] gave an IC50 of 158 nM.
For `Cc1ccnc(Cn2c(-c3ccc(OCCN(C)C)cc3Cl)nc3c(OC4(C#N)CC4)ncnc32)c1` [Example T203, 1-((8-(2-chloro-4-(2-(dimethylamino)ethoxy)phenyl)-9-((4-methylpyridin-2-yl)methyl)-9H-purin-6-yl)oxy)cyclopropane-1-carbonitrile], the IC50 was 6.31 nM.
Molecule `CC(CCOc1ccc(-c2nc3c(OC4(C)CC4)ncnc3n2Cc2cc(C(F)(F)F)ccc2F)c(Cl)c1)C(=O)O` (racemic) [Example T395, 4-(3-chloro-4-(9-(2-fluoro-5-(trifluoromethyl)benzyl)-6-(1-methylcyclopropoxy)-9H-purin-8-yl)phenoxy)-2-methylbutanoic acid] has an IC50 of 2.51 nM.
